Screening data from PubChem.
Hits are enriched below; roughly 2.8% of the tested compounds scored in any of these assays.
miR122 inh: blocks miR-122 activity in Huh7 sensor cells | Huh7 miR-122 Renilla luciferase sensor, 48 h; neutral wells = 0, positive control = 100 | activation (reporter increase), % at 12.5 µM | actives 0.3% (n = 340,000);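 active = mean replicate activation score at least 90 and every replicate individually at or above 90; inconclusive = only one of the two criteria met; inactive = neither criterion met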;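 note: higher luciferase means less miR-122 activity so hits act as miR-122 inhibitors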
Yeast UUG start: modulators of yeast start codon fidelity, primary screen, whole organism, S. cerevisiae, single point, plate reader; S. cerevisiae UUG-firefly luciferase reporter, luminescence/redox ratio; activity score, % at 18.7 µM; actives 0.13% (n = 350,000); AID 602363, 2012;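 active = replicate mean at a twofold rise or more, about +100% in these data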;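 also: firefly luciferase made from a UUG start codon reports start codon fidelity; reporter light over untreated wells divided by growth signal over untreated wells; some hits fall short of that in this replicate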
Wnt bcat act: activates Wnt/beta-catenin signaling in a reporter cell assay; activator, plate reader; activation, % at 9.35 µM; actives 1.2% (n = 300,000); AID 743398; in the data active = activation above about 30%, passing the limit was not always enough; inconclusive = no clear call, values can overlap the other calls;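 note: 0% = neutral control wells and 100% = positive control wells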
PglD inh: inhibitors of Campylobacter jejuni PglD acetyltransferase | actives 0.098% (n = 360,000) | purified PglD enzyme, DTNB colorimetric CoA detection | AID 602405 | inhibition, % at 12.5 µM; in the data active = inhibition above about 16%, passing the limit was not always enough; inconclusive = no clear call, values can overlap the other calls
esBAF inh: blocks esBAF chromatin remodeling in mouse ES cells; Bmi1-luciferase knock-in reporter, 24 h; 100% = twice the neutral-well signal; reporter increase, % at 12.5 µM; actives 2% (n = 350,000); in the data active = activation above about 40%; inconclusive = no clear call, values can overlap the other calls;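 note: 0% = median of the plate's neutral control wells and 100% = double that signal; a rise in the Bmi1 reporter signal indicates esBAF inhibition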
MITF TRPM1 HTS: activators of MITF-driven TRPM1 promoter activity in SK-MEL-5 cells; SK-MEL-5 TRPM1-promoter luciferase, 24 h; % of positive control, neutral wells = 0; activation, % at 12.5 µM; actives 0.75% (n = 300,000);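 active = mean activation of at least 80% with every replicate also reaching 80%; inconclusive = mean reaches 80% but some replicate falls short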;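 note: 0% = neutral control wells and 100% = parthenolide positive control wells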
* hit, by the source's call; [ ] = another dose, or the depositor's remark.

For CC(C)NC(=O)N(C)C[C@H]1Oc2c(NS(=O)(=O)c3ccccc3)cccc2C(=O)N([C@@H](C)CO)C[C@@H]1C the results were miR122 inh 11[16.7 µM], Yeast UUG start -6, PglD inh 4 and esBAF inh 2.
`Cc1ccccc1S(=O)(=O)/N=C(/Nc1nc2ccccc2s1)c1ccccc1` gave Yeast UUG start -16, Wnt bcat act 53*, PglD inh 0, esBAF inh 62* and MITF TRPM1 HTS 98*.
O=C(Cc1cccs1)Nc1nc2ccccc2s1 was read as Yeast UUG start 3, PglD inh 3, esBAF inh 49* and MITF TRPM1 HTS 63.
CC(=O)c1c(C)nc(Nc2nc3ccccc3s2)nc1C was read as miR122 inh 4, Yeast UUG start -7, Wnt bcat act 38* and PglD inh 2.
Screening CCCC(=O)Nc1ccc2c(c1)C(=O)N(C)C[C@@H](OC)[C@@H](C)CN(Cc1ccccn1)[C@H](C)CO2 returned Yeast UUG start -15, PglD inh -1 and esBAF inh -8.
For C[C@H]1CN([C@@H](C)CO)C(=O)c2cccc(NS(=O)(=O)c3ccc(Cl)cc3)c2O[C@H]1CN(C)CC1CC1 the results were miR122 inh 1[16.7 µM], Yeast UUG start 3, PglD inh 3 and esBAF inh -10.
Screening CCOC(=O)c1ccc(NC(=O)/C=C/c2cccs2)cc1 returned Wnt bcat act 25 and MITF TRPM1 HTS 88*.
CCc1nnc(NC(=O)/C=C/c2cccs2)s1 was read as miR122 inh 6, Yeast UUG start -13, Wnt bcat act 9, PglD inh 10, esBAF inh 58* and MITF TRPM1 HTS inconclusive.
For O=C(/C=C/c1cccs1)Nc1cccc(NC(=O)/C=C/c2cccs2)n1 the results were miR122 inh -3, Yeast UUG start -34, Wnt bcat act 11, PglD inh -8, esBAF inh inconclusive and MITF TRPM1 HTS 10.
`Cc1cc(C)nc(NC(=O)/C=C/c2cccs2)c1` gave miR122 inh 7, Yeast UUG start 0, Wnt bcat act 16, PglD inh -1, esBAF inh 81* and MITF TRPM1 HTS 75.

The closing three compounds of the section before are carried over, then new ones follow:
CCc1nnc(NC(=O)/C=C/c2cccs2)s1 was read as miR122 inh 6, Yeast UUG start -13, Wnt bcat act 9, PglD inh 10, esBAF inh 58* and MITF TRPM1 HTS inconclusive.
For O=C(/C=C/c1cccs1)Nc1cccc(NC(=O)/C=C/c2cccs2)n1 the results were miR122 inh -3, Yeast UUG start -34, Wnt bcat act 11, PglD inh -8, esBAF inh inconclusive and MITF TRPM1 HTS 10.
`Cc1cc(C)nc(NC(=O)/C=C/c2cccs2)c1` gave miR122 inh 7, Yeast UUG start 0, Wnt bcat act 16, PglD inh -1, esBAF inh 81* and MITF TRPM1 HTS 75.
Screening CCN(CC)CCOC(=O)c1ccc(NC(=O)/C=C/c2cccs2)cc1 returned Wnt bcat act inconclusive and MITF TRPM1 HTS 15.
Cc1cc(C)nc(NC(=O)/C=C/c2ccccc2Cl)c1 was read as Wnt bcat act 44* and MITF TRPM1 HTS 54.
For Cc1ccc(S(=O)(=O)N(C)C[C@H]2Oc3c(NC(=O)NC4CCCCC4)cccc3C(=O)N([C@@H](C)CO)C[C@@H]2C)cc1 the results were miR122 inh 14[16.7 µM], Yeast UUG start 9, PglD inh 2 and esBAF inh 2.
For O=C(Cc1ccncc1)Nc1ccc2c(c1)[C@H]1C[C@@H](CC(=O)NC3CCCC3)O[C@H](CO)[C@H]1O2 the results were miR122 inh -6[16.7 µM], Yeast UUG start 3, PglD inh 1 and esBAF inh 3.
Screening Cc1cccc(NC(=O)/C=C/c2ccc(Cl)cc2)n1 returned MITF TRPM1 HTS 90*.
Screening Cc1cc(C)nc(NC(=O)/C=C/c2ccc(Cl)cc2Cl)c1 returned miR122 inh -5, Yeast UUG start -16, PglD inh 3, esBAF inh 66* and MITF TRPM1 HTS 88*.
COc1ccc(C#Cc2cnc3c(c2)C(=O)N([C@H](C)CO)C[C@H](C)[C@H](CN(C)C(=O)CN(C)C)O3)cc1 was read as miR122 inh -3[16.7 µM], Yeast UUG start -6, PglD inh -2 and esBAF inh 4.
Cc1ccc(S(=O)(=O)N[C@H]2CC[C@H](CC(=O)NC3CCCCC3)O[C@H]2CO)cc1 was read as Yeast UUG start 12, PglD inh 0 and esBAF inh 6.
Screening COc1ccc(-c2cc3onc(-c4c(Cl)cccc4Cl)c3c(=O)n2C)cc1 returned miR122 inh 26, Yeast UUG start -33, Wnt bcat act 6, PglD inh 1, esBAF inh 35 and MITF TRPM1 HTS 20.
For CN(C)C(=O)c1ccc(-c2cc3onc(-c4ccccc4)c3c(=O)n2C)cc1 the results were miR122 inh -6, Yeast UUG start -15, Wnt bcat act 41*, PglD inh 3, esBAF inh 55* and MITF TRPM1 HTS 69.
Screening COC(=O)c1ccc(-c2cc3onc(-c4ccccc4)c3c(=O)n2C)cc1 returned miR122 inh -1, Yeast UUG start -12, Wnt bcat act 31*, PglD inh 1, esBAF inh 39 and MITF TRPM1 HTS 39.
O=C(N[C@H]1CC[C@H](CCNS(=O)(=O)c2ccc(Cl)cc2)O[C@H]1CO)c1ccccn1 was read as miR122 inh 3[16.7 µM], PglD inh 5 and esBAF inh 2.
Cc1ccc(S(=O)(=O)N[C@@H]2CC[C@@H](CCNC(=O)C3CCC3)O[C@H]2CO)cc1 was read as Yeast UUG start 2, PglD inh -1 and esBAF inh -5.
Cc1ccc(-c2ccc(CCC(=O)O)n2NC(=O)c2ccc([N+](=O)[O-])cc2)cc1 was read as miR122 inh -9, Yeast UUG start 13, Wnt bcat act 54*, PglD inh -2, esBAF inh -4 and MITF TRPM1 HTS 2.
`O=C(O)CCc1ccc(-c2ccc(Br)cc2)n1NC(=O)c1ccc([N+](=O)[O-])cc1` gave miR122 inh 3, Yeast UUG start -14, Wnt bcat act 1, PglD inh -5, esBAF inh -9 and MITF TRPM1 HTS 1.
C[C@H]1CN([C@@H](C)CO)C(=O)c2cccc(NS(=O)(=O)c3ccc(F)cc3)c2O[C@H]1CN(C)CC1CC1 was read as miR122 inh 2[16.7 µM], Yeast UUG start -2, PglD inh 3 and esBAF inh 5.
For CN(C)S(=O)(=O)c1cc(NC(=O)COC(=O)CCc2ccccc2)ccc1Cl the results were Yeast UUG start -7, Wnt bcat act 1, PglD inh 1, esBAF inh 1 and MITF TRPM1 HTS -10.
Screening CN(C)S(=O)(=O)c1cc(NC(=O)[C@H](Cc2ccccc2)N2C(=O)c3ccccc3C2=O)ccc1Cl returned Wnt bcat act 31* and MITF TRPM1 HTS -5.
For C[C@@H]1CN([C@@H](C)CO)C(=O)c2cc(-c3ccc(F)cc3)cnc2O[C@H]1CN(C)CC1CCCCC1 the results were miR122 inh -10[16.7 µM], Yeast UUG start 9, PglD inh 3 and esBAF inh -4.
C[C@H]1CCCCO[C@@H](CN(C)Cc2ccc(C(F)(F)F)cc2)[C@@H](C)CN([C@@H](C)CO)C(=O)c2cc(NC(=O)Cc3ccccc3)ccc2O1 was read as miR122 inh -20[16.7 µM], Yeast UUG start 10, PglD inh 3 and esBAF inh 0.
